Reference: ChEMBL document CHEMBL4402597, “Truncated (N)-Methanocarba Nucleosides as Partial Agonists at Mouse and Human A3 Adenosine Receptors: Affinity Enhancement by N6-(2-Phenylethyl) Substitution” (J Med Chem, 2020)

Protein sequences, listed by entry. Tags and fused reporters are not part of them.
UniProt P0DMS8, whole entry: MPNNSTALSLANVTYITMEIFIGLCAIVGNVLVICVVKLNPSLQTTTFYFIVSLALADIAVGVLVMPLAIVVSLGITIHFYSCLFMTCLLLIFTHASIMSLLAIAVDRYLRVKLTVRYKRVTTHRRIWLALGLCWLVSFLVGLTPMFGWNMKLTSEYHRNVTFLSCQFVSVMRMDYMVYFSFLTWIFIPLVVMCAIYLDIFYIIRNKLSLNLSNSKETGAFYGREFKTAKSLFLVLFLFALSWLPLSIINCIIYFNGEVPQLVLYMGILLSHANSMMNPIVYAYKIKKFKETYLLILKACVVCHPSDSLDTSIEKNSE

Biological target: Adenosine receptor A3 (Homo sapiens, UniProt P0DMS8)
Assay: Partial agonist activity at recombinant human A3AR expressed in HEK293 cells assessed as inhibition of forskolin-stimulated cAMP accumulation by measuring residual cAMP level measured after 30 mins in presence of A2BAR blocker PSB-603 by Glo-sensor assay relative to control
Format: functional, cell-based

In the case of `CNC(=O)[C@H]1O[C@@H](n2cnc3c(NCc4cccc(I)c4)nc(Cl)nc32)[C@H](O)[C@@H]1O`, the Emax is reported as 31.7%.
